The values below come from PubChem BioAssay AID652163 (Broad Institute, 2013).

Protein sequences, listed by entry. Tags and fused reporters are not part of them.
UniProt P26447, whole entry: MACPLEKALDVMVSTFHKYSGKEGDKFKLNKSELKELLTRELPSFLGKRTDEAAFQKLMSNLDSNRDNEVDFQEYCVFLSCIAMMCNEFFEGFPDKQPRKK

SMILES strings stand for the structures. Only a part is listed here, and it is no random draw. Activity calls are given as the source filed them.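 How the source made its calls: active means mean inhibition of at least 70% across replicates, with every replicate also reaching that level; inconclusive means mean inhibition reaches 70% but some replicates fall short; inactive means mean inhibition below 70%.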

The assay concerns the target Protein S100-A4 (Homo sapiens) (UniProt P26447). Nature of the assay: inhibitors of S100A4-myosin IIA peptide binding, primary screen, biochemical, fluorescence polarization, TAMRA-MyoIIA peptide (AID 652163). The note with it: at 10.7 µM, active compounds read high. The essentials:
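assay system = human S100A4 monomer with TAMRA-labelled myosin IIA peptide | also added = labelled myosin peptide probe, 5 nM | incubation = 5 min between mix addition and reading | control set = DMSO and TFP controls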
For orientation: Polarisation of emitted light reports the rotation of a fluorescent probe.
With `O=[N+]([O-])c1cc([N+](=O)[O-])c(-c2cnn(-c3ccccc3)c2)c([N+](=O)[O-])c1`, the inhibition is inactive: -2.32%.

`O=P1(N(CCCl)CCCl)Nc2ccccc2N1`: the inhibition is inactive: -14.2%.

In general, inhibition refers to the drop in the measured response relative to a control, in per cent.
